From patent publication US20260241026A1, “THERAPEUTIC METHOD FOR LOW-DRUG-SENSITIVITY CANCERS BY ADMINISTRATION OF ANTI-MUC1 ANTIBODY-DRUG CONJUGATE” (priority 2023, published 2026)

Tested on: human breast cancer cell line HCC70
Experiment: Antitumor test in model with transplanted breast cancer cell line HCC70 (Example 5)
Experimental: A human breast cancer cell line HCC70 was purchased from ATCC and reconstituted using RPMI 1640 medium (manufactured by Thermo Fisher Scientific Inc.) containing 10% fetal bovine serum. Then, the cells were cultured in an incubator set to 37° C. and 5% CO2, and passaged at a frequency of once to twice a week. […] The suspension was subcutaneously transplanted at 100 μL to each 5-week-old female nude mouse (1×10^7 cells/100 μL/head). The mice were grouped 21 days after transplantation when the average tumor volume in the mice with the transplant became about 198 mm^3.
Six mice per group were used in groups 1, 2, and 3, and 12 mice was used in group 4. Body weights and tumor sizes were measured once to twice a week, and estimated tumor volumes were calculated. The comparison of drug efficacy between agents was analyzed by the parametric Dunnett's multiple comparison.
TA-MUC1-DXd ADC was sequentially administered at 10 mg/kg (Q3W×3) to one of the groups, and evaluation and observation were carried out up to Day 84.

With “trastuzumab deruxtecan [HER2-DXd ADC, reference compound]” as the substance, how does the “tumor course after regrouping of the HER2-DXd ADC administration group” value (10 mg/kg from Day 21 to tumors pre-treated with HER2-DXd ADC, TA-MUC1-DXd ADC Q3W×3 up to Day 84, HER2-DXd ADC up to Day 42) read?
The value was “grew continuously”.

What about the “ETV (mm^3) Mean” value (Day 21, 10 mg/kg, intravenous, HCC70) of the same substance?
Its value is 443 mm^3.

What about the tumor regression effect (Day 21, 10 mg/kg, HCC70) of the same substance?
Its tumor regression effect is “no tumor regression”.
